Assay results: publication PMC2289219 (The Journal of Cell Biology, 1991)

System: monolayers of brain ECs

## OC[C@H]1O[C@@](CO)(O[C@H]2O[C@H](CO)[C@@H](O)[C@H](O)[C@H]2O)[C@@H](O)[C@@H]1O [sucrose]
  Flux across high resistance monolayers: limited compared to that occurring across filters without cells
